We go through one compound from US20130316985A1, “GPR35 Ligands And Uses Thereof” (CORNING INCORPORATED, priority 2012, published 2013).

By UniProt entry, the sequences of proteins in these tests, tags left out. Where a name states a change or a piece, a line headed by the entry shows the natural chain unless it says otherwise.
UniProt Q9HC97: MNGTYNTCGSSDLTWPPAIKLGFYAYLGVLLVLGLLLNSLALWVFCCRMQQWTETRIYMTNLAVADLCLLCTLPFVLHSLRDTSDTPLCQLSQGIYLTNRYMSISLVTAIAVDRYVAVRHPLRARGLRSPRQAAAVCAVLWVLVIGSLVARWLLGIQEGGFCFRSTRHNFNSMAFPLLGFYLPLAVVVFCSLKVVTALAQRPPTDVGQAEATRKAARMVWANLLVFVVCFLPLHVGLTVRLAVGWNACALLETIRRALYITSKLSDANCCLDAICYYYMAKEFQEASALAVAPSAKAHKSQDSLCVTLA

A word on the EC50: it is the midpoint of the concentration-response curve.

The target of the assay is GPR35 (Homo sapiens, UniProt Q9HC97). Description: DMR agonism assay in native HT-29 cells (Epic optical biosensor). The settings on record: read-out: Potency EC50, DMR.

Regarding `O=[N+]([O-])c1ccc(O)c([N+](=O)[O-])c1` [2,4-DNP, 2,4-dinitrophenol], the EC50 was determined as 31.1 ± 2.9 µM.
